Read-out in assay [1]: Tissue plasminogen activator (tPA), PLAT (gene 5327)
Put plainly: BSK_BE3C_tPA: BioMAP Diversity Plus: BE3C Assay for Tissue plasminogen activator (tPA) Biomarker Activity (AID 2283041).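 Note: tPA level quantified by ELISA one day after compound addition.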 Particulars: actives raise or lower the signal; primary human bronchial epithelial cells. An outline of the steps: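 tPA measured by ELISA 24 h after dosing human primary bronchial epithelial cells (BE3C system). Changes in either direction were fitted against DMSO. Parallel cultures were stained with SRB to flag overt cytotoxicity.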

Read-out in assay [2]: Interleukin-8 (IL8), CXCL8 (gene 3576)
Description: BSK_CASM3C_IL8: BioMAP Diversity Plus: CASM3C Assay for Interleukin-8 (IL8) Biomarker Activity (AID 2283042).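 Note: IL-8 protein level quantified by ELISA.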 Particulars: actives raise or lower the signal; primary human coronary artery smooth muscle cells.

Read-out in assay [3]: Human Leukocyte Antigen - DR isotype (HLADR), HLA-DRA (gene 3122)
Put plainly: BSK_CASM3C_HLADR: BioMAP Diversity Plus: CASM3C Assay for Human Leukocyte Antigen - DR isotype (HLADR) Biomarker Activity (AID 2283043).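 Note: cell-surface HLA-DR protein level quantified by ELISA.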 The following applies: actives raise or lower the signal; primary human coronary artery smooth muscle cells.

Read-out in assay [4]: Macrophage colony-stimulating factor (MCSF), CSF1 (gene 1435)
Put plainly: BSK_CASM3C_MCSF: BioMAP Diversity Plus: CASM3C Assay for Macrophage colony-stimulating factor (MCSF) Biomarker Activity (AID 2283044).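 Note: M-CSF protein amount quantified by ELISA after 24 h exposure.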 The following applies: actives raise or lower the signal; primary human coronary artery smooth muscle cells.

Read-out in assay [5]: Low-density lipoprotein receptor (LDLR), LDLR (gene 3949)
Put plainly: BSK_CASM3C_LDLR: BioMAP Diversity Plus: CASM3C Assay for Low-density lipoprotein receptor (LDLR) Biomarker Activity (AID 2283045).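 Note: LDLR protein level on the cell surface quantified by ELISA.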 Particulars: actives raise or lower the signal; primary human coronary artery smooth muscle cells.

Read-out in assay [6]: Monocyte Chemoattractant Protein-1 (MCP1), CCL2 (gene 6347)
Description: BSK_CASM3C_MCP1: BioMAP Diversity Plus: CASM3C Assay for Monocyte Chemoattractant Protein-1 (MCP1) Biomarker Activity (AID 2283046).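 Note: MCP-1 level quantified by ELISA 24 h after dosing.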 Particulars: actives raise or lower the signal; primary human coronary artery smooth muscle cells.

Assay [7] is described as follows: BSK_CASM3C_Proliferation: Cell Proliferation Assessment in the BioMAP Diversity Plus: CASM3C Assay (AID 2283047).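 Note: sulforhodamine B total protein stain as relative cell number at 560 nm; sub-confluent cells exposed 48 h before staining; fitted both ways against DMSO so gain or loss of cell number.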 The following applies: primary human coronary artery smooth muscle cells.
Read-out in assay [8]: Monokine induced gamma interferon (MIG), CXCL9 (gene 4283)
Put plainly: BSK_CASM3C_MIG: BioMAP Diversity Plus: CASM3C Assay for Monokine induced gamma interferon (MIG) Biomarker Activity (AID 2283048).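 Note: MIG protein level measured by ELISA.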 Particulars: actives raise or lower the signal; primary human coronary artery smooth muscle cells.

Read-out in assay [9]: serum amyloid A (SAA), SAA1 (gene 6288)
Description: BSK_CASM3C_SAA: BioMAP Diversity Plus: CASM3C Assay for serum amyloid A (SAA) Biomarker Activity (AID 2283049).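 Note: SAA protein level quantified by ELISA.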 Particulars: actives raise or lower the signal; primary human coronary artery smooth muscle cells.

The nature of assay [10]: BSK_CASM3C_SRB: Viability Assessment in the BioMAP Diversity Plus: CASM3C Assay (AID 2283050).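 Note: total protein by SRB staining as cytotoxicity measure in parallel cultures; cells exposed to compound for 24 h.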 The following applies: primary human coronary artery smooth muscle cells.
Read-out in assay [11]: Thrombomodulin, THBD (gene 7056)
Description: BSK_CASM3C_Thrombomodulin: BioMAP Diversity Plus: CASM3C Assay for Thrombomodulin Biomarker Activity (AID 2283051).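 Note: thrombomodulin protein level measured by ELISA 24 h after dosing.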 Particulars: actives raise or lower the signal; primary human coronary artery smooth muscle cells.

Read-out in assay [12]: Tissue Factor, F3 (gene 2152)
Put plainly: BSK_CASM3C_TissueFactor: BioMAP Diversity Plus: CASM3C Assay for Tissue Factor Biomarker Activity (AID 2283052).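 Note: cell surface tissue factor protein level read by ELISA.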 The following applies: actives raise or lower the signal; primary human coronary artery smooth muscle cells.

Read-out in assay [13]: Interferon-gamma inducible Protein 10 (IP10), CXCL10 (gene 3627)
Put plainly: BSK_hDFCGF_IP10: BioMAP Diversity Plus: hDFCGF Assay for Interferon-gamma inducible Protein 10 (IP10) Biomarker Activity (AID 2283053). The following applies: actives raise or lower the signal; primary human foreskin fibroblasts. An outline of the steps:
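ELISA quantification of IP-10 after a 24 h chemical exposure of human dermal foreskin fibroblast primary cultures. Both increases and decreases versus DMSO fitted.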

Read-out in assay [14]: Urokinase-type plasminogen activator receptor (uPAR), PLAUR (gene 5329)
Description: BSK_CASM3C_uPAR: BioMAP Diversity Plus: CASM3C Assay for Urokinase-type plasminogen activator receptor (uPAR) Biomarker Activity (AID 2283054).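 Note: cell-surface uPAR protein level quantified by ELISA.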 Particulars: actives raise or lower the signal; primary human coronary artery smooth muscle cells.

Read-out in assay [15]: Vascular cell adhesion molecule 1 (VCAM1), VCAM1 (gene 7412)
Description: BSK_CASM3C_VCAM1: BioMAP Diversity Plus: CASM3C Assay for Vascular cell adhesion molecule 1 (VCAM1) Biomarker Activity (AID 2283055).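 Note: VCAM-1 protein level quantified by ELISA on the cells.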 Particulars: actives raise or lower the signal; primary human coronary artery smooth muscle cells.

Read-out in assay [16]: Collagen III, COL3A1 (gene 1281)
Description: BSK_hDFCGF_CollagenIII: BioMAP Diversity Plus: hDFCGF Assay for Collagen III Biomarker Activity (AID 2283056). Particulars: actives raise or lower the signal; primary human foreskin fibroblasts. The procedure, abridged:
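hDFCGF primary human dermal fibroblasts; 24 h chemical exposure; collagen III by ELISA; bidirectional curve fit vs DMSO baseline (gain or loss of signal).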

Read-out in assay [17]: Epidermal growth factor receptor (EGFR), EGFR (gene 1956)
Description: BSK_hDFCGF_EGFR: BioMAP Diversity Plus: hDFCGF Assay for Epidermal growth factor receptor (EGFR) Biomarker Activity (AID 2283057). Particulars: actives raise or lower the signal; primary human foreskin fibroblasts. The procedure, abridged: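 EGFR levels by ELISA in human dermal fibroblast cultures, 24 h post-treatment, fitted bidirectionally versus DMSO. Parallel wells stained with sulforhodamine B to detect overt cytotoxicity.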

Read-out in assay [18]: Interleukin-8 (IL8), CXCL8 (gene 3576)
Put plainly: BSK_hDFCGF_IL8: BioMAP Diversity Plus: hDFCGF Assay for Interleukin-8 (IL8) Biomarker Activity (AID 2283058). The following applies: actives raise or lower the signal; primary human foreskin fibroblasts. The procedure, abridged: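 ELISA read-out of IL-8 from primary human foreskin fibroblast cultures taken 24 h after dosing; values are bidirectional fits relative to DMSO vehicle.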

Assay [19] can be described thus: BSK_hDFCGF_Proliferation: Cell Proliferation Assessment in the BioMAP Diversity Plus: hDFCGF Assay (AID 2283059).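 Note: curves fitted for both rise and fall of signal versus DMSO baseline.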 Particulars: primary human foreskin fibroblasts. An outline of the steps:
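Steps: dose primary human dermal fibroblasts (foreskin); […] fix in 10% TCA; stain with 0.1% SRB; read 560 nm; fit gain or loss of signal against DMSO.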

Read-out in assay [20]: Macrophage colony-stimulating factor (MCSF), CSF1 (gene 1435)
Description: BSK_hDFCGF_MCSF: BioMAP Diversity Plus: hDFCGF Assay for Macrophage colony-stimulating factor (MCSF) Biomarker Activity (AID 2283060). Particulars: actives raise or lower the signal; primary human foreskin fibroblasts. The procedure, abridged: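 ELISA read-out of M-CSF in human dermal foreskin fibroblast cultures, 24 h after chemical dosing; gain or loss of signal fitted bidirectionally relative to DMSO baseline.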

For two molecules, outcome and AC50 results are on record in PubChem BioAssay (EPA / NIEHS).

The AC50 is the concentration giving half of the maximal activity seen.

Only a part is listed here, and it is no random draw. Active and inactive are the calls of the source. Rule for the calls: active = hit-call score of the fitted dose curve at least 0.9, where 1 is the maximum; inactive = score below 0.9.

For `O=[N+]([O-])c1ccccc1[N+](=O)[O-]`, the outcome in [1], in [2], in assay [4], in [5], in assay [6] and in assay [8] was inactive. Further, the outcome in assay [9], in assay [10], in assay [12], in assay [14], in assay [17] and in assay [18] was inactive. In addition, the concentration at half-maximal activity (AC50) in [3] was active: 9.28 µM; in assay [7], active: 24.2 µM; in [11], active: 20 µM; in [13], active: 20 µM; in [15] it was active: 16.3 µM; in assay [16] it was active: 3.5 µM. Also, the AC50 in assay [19] was active: 20.4 µM; in assay [20] it was active: 10.6 µM.
On to `CC(C)OP(OC(C)C)OC(C)C`, for which the outcome in [1], in assay [2], in assay [3], in assay [4], in [5] and in assay [6] was inactive. Also, the outcome in [7], in assay [8], in assay [9], in assay [10], in assay [11] and in [12] was inactive. In addition, the result in assay [13], in assay [14], in [15], in assay [16], in assay [17] and in assay [18] was inactive. For the same molecule, the result in assay [19] and in assay [20] was inactive.
